Reference: patent US8623883B2, “4-phenylamino-quinazolin-6-yl-amides” (Warner-Lambert Company LLC, priority 2004, dated 2014)

Amino acid sequences for entries named in this document (tags omitted). Residues count along the entry.
UniProt Q15303, 26-1308 limits assumed: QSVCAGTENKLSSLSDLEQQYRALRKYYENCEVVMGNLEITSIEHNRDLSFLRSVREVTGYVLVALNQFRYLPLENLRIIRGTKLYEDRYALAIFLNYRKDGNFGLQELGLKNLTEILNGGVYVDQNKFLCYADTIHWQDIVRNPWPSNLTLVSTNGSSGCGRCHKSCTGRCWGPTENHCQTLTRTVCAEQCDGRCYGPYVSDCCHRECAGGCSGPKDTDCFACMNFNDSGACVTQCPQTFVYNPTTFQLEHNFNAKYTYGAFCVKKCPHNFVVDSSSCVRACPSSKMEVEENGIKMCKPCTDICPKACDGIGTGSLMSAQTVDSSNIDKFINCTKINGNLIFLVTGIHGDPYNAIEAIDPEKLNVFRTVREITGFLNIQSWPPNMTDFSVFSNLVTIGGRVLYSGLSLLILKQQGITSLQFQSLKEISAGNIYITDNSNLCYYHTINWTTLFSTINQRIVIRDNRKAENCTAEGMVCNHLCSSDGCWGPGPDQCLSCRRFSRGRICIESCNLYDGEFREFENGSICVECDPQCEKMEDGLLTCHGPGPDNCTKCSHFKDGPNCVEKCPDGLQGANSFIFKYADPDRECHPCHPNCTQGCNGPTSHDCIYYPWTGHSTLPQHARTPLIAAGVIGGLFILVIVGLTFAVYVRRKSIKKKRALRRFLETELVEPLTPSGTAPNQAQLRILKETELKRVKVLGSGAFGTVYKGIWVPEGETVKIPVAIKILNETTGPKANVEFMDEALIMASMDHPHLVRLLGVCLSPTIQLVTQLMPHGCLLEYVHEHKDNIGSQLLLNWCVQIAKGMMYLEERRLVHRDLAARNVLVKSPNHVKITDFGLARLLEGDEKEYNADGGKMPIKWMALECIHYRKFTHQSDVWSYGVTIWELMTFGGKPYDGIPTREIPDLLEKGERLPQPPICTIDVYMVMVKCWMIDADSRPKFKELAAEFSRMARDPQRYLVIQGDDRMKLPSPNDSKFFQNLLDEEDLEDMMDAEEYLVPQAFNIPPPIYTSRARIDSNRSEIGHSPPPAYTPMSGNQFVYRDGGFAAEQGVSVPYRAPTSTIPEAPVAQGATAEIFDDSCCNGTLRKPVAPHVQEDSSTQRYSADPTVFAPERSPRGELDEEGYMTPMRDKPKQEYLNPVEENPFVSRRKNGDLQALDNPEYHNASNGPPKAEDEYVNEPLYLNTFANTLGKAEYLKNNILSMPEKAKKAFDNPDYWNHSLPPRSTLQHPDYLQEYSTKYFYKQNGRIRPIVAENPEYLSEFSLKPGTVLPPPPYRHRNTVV

Biological target: ErbB4 (Homo sapiens, UniProt Q15303)
Assay: ELISA-based erbB kinase assay (ErbB4)
Type: biochemical
Settings: GST-erbB4 cytoplasmic fusion protein, 20 uM ATP, poly-Glu-Tyr substrate
From the text: ErbB1, erbB2 and erbB4 cytoplasmic fusion proteins were made by cloning the erbB1 sequence (Met-668 to Ala1211), erbB2 (Ile-675 to Val-1256) and erbB4 sequence (Gly-259 to Gly-690) into the baculoviral vector pFastBac using Polymerase Chain Reaction (PCR). Proteins were expressed in Baculovirus-infected Sf9 insect cells as Glutathione S-Transferase (GST) fusion proteins. The proteins were purified by affinity chromatography using glutathione sepharose beads.
Inhibition of erbB tyrosine kinase activity was assessed using an ELISA-based receptor tyrosine kinase assay. Kinase reactions (50 mM HEPES, pH 7.4, 125 mM NaCl, 10 mM MgCl2, 100 μM sodium orthovanadate, 2 mM dithiothreitol, 20 uM ATP, test compound or vehicle control and 1-5 nM GST-erbB per 50 uL reaction) were run in 96-well plates coated with 0.25 mg/ml poly-Glu-Tyr (Sigma). The reactions were incubated for 6 minutes at room temperature while shaking. […] Phosphorylated tyrosine residues were detected by adding 0.2 μg/ml anti-phosphotyrosine antibody (Oncogene Ab-4; 50 μL/well) coupled to Horse Radish Peroxidase (HRP) for 25 minutes while shaking at room temperature. […] The signal was quantified by measuring absorbance at 450 nm. IC50 values were determined for test compounds using Microsoft Excel.

- IC50: 83.7 nM
Structure (SMILES): COc1cc2ncnc(Nc3ccc(F)c(Cl)c3)c2cc1NC(=O)/C=C/CN1CCCCC1 [Example No. 2, 4-Piperidin-1-yl-but-2-enoic acid [4-(3-chloro-4-fluoro-phenylamino)-7-methoxy-quinazolin-6-yl]-amide]
